Test results from patent US9266930.

Molecular target: HLA-A*0201 (human)

Substance: […] (Plasmodium falciparum LSA, position 13, 9 amino acids) (peptide; other documents disagree on this pair)
- binding affinity ratio (IC50 of standard peptide / IC50 of test peptide): 0.0006
